Experimental data from patent US20230174660A1, “USE OF A MULTIMERIC ANTI-DR5 BINDING MOLECULE IN COMBINATION WITH A CANCER THERAPY FOR TREATING CANCER” (IGM Biosciences, Inc., priority 2020, published 2023).

Assays:
OCI-LY7 = assay: Cell Titer Glo viability, Mab A + chemotherapeutic/targeted agent (Example 9)
U-937 = assay: as above
PANC1 = assay: Cell Titer Glo viability, Mab A + chemotherapeutic agent, Bliss synergy (Example 1); conditions: combination with anti-DR5 IgM Mab A; PANC1, Pancreas Ductal Adenocarcinoma, exocrine; 72 hours
HT1080 = assay: as above; conditions: combination with anti-DR5 IgM Mab A; HT1080, Connective tissue Fibrosarcoma; 72 hours
NCIH508 = assay: as above; conditions: combination with anti-DR5 IgM Mab A; NCIH508, Colorectal Caecum Adenocarcinoma; 72 hours

| Molecule | Average Bliss score (DOHH-2) | Average Bliss score (OCI-LY7) | Average Bliss score (U-937) | Average Bliss score (PANC1) | Average Bliss score (HT1080) | Average Bliss score (NCIH508) |
| --- | --- | --- | --- | --- | --- | --- |
| CC[C@]1(O)C[C@@H]2C[N@@](CCc3c([nH]c4ccccc34)[C@@](C(=O)OC)(c3cc4c(cc3OC)N(C=O)[C@H]3[C@@](O)(C(=O)OC)[C@H](OC(C)=O)[C@]5(CC)C=CCN6CC[C@]43[C@@H]65)C2)C1 [vincristine, Vincristine] | −3.7 | −1.0 | 5.2 |  |  |  |
| Oxaliplatin |  |  |  | 8.9 | −1 | 0.75 |
